Source: US9139566B2, “Fluorine-18 and carbon-11 labeled radioligands for positron emission tomography (PET) imaging for LRRK2” (Genentech, Inc., priority 2011, dated 2015)

Protein sequences, listed by entry. Tags and fused reporters are not part of them. Lines headed by an entry give the natural chain unless they say otherwise; changes in a name come on top.
UniProt Q5S007: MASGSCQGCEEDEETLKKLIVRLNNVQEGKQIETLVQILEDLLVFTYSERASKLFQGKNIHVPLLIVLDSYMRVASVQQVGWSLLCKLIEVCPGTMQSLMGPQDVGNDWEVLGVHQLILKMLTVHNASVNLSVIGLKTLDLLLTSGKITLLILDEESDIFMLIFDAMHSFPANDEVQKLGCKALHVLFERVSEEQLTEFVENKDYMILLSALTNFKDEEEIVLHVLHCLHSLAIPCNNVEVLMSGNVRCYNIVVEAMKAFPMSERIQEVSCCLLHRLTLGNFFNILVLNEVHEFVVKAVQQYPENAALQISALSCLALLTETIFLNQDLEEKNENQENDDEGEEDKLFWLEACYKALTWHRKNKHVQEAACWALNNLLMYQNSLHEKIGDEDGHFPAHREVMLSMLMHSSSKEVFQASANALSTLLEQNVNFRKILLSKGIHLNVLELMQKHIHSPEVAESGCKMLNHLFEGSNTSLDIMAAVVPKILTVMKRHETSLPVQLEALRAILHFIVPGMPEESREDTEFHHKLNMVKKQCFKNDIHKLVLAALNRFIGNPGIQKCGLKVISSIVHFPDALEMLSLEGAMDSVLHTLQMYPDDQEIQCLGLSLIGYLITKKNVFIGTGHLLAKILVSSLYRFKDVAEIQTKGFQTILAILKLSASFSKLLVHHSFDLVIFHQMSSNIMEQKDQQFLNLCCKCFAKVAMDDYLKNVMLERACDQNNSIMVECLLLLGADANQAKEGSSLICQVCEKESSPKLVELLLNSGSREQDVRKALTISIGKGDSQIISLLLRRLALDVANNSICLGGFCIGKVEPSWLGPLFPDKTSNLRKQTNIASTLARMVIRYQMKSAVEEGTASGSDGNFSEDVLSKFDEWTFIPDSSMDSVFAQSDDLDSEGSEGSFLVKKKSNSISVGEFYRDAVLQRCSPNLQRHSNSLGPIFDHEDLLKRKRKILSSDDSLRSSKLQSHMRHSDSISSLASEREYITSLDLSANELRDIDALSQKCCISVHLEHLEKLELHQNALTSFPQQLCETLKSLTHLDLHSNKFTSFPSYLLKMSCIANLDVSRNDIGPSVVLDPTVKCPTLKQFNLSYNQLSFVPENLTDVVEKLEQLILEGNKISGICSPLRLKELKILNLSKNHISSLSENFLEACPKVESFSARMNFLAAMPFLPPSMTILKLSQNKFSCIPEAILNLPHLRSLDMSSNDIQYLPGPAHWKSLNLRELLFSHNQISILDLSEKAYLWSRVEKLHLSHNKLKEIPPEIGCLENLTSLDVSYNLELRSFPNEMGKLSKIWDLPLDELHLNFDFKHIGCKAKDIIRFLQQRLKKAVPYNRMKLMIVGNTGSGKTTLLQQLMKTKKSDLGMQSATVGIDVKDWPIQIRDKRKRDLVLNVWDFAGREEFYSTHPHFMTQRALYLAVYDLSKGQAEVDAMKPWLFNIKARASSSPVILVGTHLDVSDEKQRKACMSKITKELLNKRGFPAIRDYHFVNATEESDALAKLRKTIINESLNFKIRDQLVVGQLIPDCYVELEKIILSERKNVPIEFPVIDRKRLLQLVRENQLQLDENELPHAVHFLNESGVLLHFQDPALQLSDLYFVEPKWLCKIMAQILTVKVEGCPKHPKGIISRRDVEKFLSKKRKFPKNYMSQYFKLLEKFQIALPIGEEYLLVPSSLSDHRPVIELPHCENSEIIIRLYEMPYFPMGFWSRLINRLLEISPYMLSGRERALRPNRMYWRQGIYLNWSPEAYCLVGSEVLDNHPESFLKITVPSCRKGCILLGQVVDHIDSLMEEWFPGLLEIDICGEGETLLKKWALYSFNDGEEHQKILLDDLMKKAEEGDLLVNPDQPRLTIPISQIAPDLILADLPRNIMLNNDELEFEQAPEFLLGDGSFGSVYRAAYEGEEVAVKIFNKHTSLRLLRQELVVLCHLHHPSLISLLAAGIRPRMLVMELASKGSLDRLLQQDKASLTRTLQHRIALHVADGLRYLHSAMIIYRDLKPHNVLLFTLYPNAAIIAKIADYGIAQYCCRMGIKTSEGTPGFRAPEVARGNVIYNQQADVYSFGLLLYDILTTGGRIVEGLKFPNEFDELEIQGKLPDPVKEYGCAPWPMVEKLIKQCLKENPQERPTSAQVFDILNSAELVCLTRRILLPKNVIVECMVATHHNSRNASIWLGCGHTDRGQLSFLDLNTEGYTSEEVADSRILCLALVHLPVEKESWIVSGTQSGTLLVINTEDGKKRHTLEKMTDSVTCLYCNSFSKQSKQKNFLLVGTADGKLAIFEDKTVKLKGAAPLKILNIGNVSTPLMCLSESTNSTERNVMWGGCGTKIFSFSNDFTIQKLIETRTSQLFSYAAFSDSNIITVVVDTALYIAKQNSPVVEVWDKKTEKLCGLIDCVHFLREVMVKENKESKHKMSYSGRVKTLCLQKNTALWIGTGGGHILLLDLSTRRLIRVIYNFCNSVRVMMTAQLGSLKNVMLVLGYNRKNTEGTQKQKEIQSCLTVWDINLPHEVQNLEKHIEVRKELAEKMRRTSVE

Biological target: LRRK2 (Homo sapiens, UniProt Q5S007)
Test: LRRK2 affinity (Ki)
Assay type: binding
Conditions: LRRK2 affinity (micromolar), Table 1

Ki: 8.9 nM
SMILES: CNc1nc(Nc2ccc(CN3CCOCC3)cc2OCCF)ncc1Cl [Compound 23, 5-chloro-N2-(2-(2-fluoroethoxy)-4-(morpholinomethyl)phenyl)-N4-methylpyrimidine-2,4-diamine]
